The target in this assay is T1, Glutaminase kidney isoform, mitochondrial (Homo sapiens, UniProt O94925).
T1 sequence (O94925 whole entry): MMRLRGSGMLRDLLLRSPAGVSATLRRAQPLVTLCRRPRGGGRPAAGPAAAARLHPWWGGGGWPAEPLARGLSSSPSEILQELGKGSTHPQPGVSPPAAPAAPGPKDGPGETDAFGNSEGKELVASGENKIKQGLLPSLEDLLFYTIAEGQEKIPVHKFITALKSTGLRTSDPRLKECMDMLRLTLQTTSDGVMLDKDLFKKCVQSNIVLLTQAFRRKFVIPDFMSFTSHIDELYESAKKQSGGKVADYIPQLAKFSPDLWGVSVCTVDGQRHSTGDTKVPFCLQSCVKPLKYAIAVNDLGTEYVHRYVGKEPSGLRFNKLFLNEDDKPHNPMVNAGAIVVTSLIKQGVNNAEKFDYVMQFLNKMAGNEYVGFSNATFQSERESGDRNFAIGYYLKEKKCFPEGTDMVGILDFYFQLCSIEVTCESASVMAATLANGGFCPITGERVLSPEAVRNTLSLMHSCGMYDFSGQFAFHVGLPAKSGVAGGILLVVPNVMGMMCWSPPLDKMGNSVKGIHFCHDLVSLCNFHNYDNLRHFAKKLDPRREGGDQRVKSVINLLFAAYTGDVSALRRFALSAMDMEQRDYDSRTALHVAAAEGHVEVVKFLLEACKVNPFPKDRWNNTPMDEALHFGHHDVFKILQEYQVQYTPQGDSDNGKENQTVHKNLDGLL

We go through one compound from ChEMBL document CHEMBL3639086, “Heterocyclic inhibitors of glutaminase” (2013).

Broadly, the IC50 is the point on the concentration scale where inhibition reaches its midpoint. A high value points to weaker potency in that assay. Regarding `CCOC(=O)NC(C)c1cccc(CC(=O)Nc2ccc(CCCCc3nnc(NC(=O)Cc4ccccc4)s3)nn2)c1` (stereo unspecified), 10 nM corresponded to half-maximal inhibition (IC50).
